Earlier results as cited in US10906890B2, “Triazole phenyl compounds as agonists of the APJ receptor” (AMGEN INC., priority 2016, dated 2021).

Conditions: in vivo; cited from earlier work

Substance: Apelin-13
- plasma half-life: < 5 min
